Ab-14 heavy chain CDR variants: yeast mating affinities

The target is the same throughout: PDVDLGDISGINAS, from the HR2 region of SARS-CoV-2 spike.

Ab-14 is the parent antibody, in scFv form: VH, then a 15-residue (Gly4Ser)3 linker, then VL. The light chain is unchanged in all variants.
VH: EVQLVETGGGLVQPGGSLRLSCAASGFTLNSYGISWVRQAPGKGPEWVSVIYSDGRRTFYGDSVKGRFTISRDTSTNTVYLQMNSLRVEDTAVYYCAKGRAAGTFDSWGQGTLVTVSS
VL: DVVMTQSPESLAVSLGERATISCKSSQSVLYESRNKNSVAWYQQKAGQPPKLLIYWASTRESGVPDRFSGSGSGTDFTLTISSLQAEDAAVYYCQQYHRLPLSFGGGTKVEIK

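The parent was found by panning a naive human phage display library on the peptide. Designed CDR sequences, proposed from the first random library and measured here. Several design methods are mixed in this list. The assay is AlphaSeq: two haploid yeast populations carry antibody and antigen on their surface. The frequency of each diploid, read from paired DNA barcodes, reflects how well the two displayed proteins bind. The ratio of observed to expected reads was calibrated, replicate by replicate, on BCL2-family standards whose Kd was known from biolayer interferometry. Mating was done six times.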

The parent's heavy chain CDRs are GFTLNSYGIS, VIYSDGRRTFYGDSVK, GRAAGTFDS; each variant's own CDRs replace them letter for letter. Variants here have at most six changes. Each Kd is an estimate from the mating assay, the geometric mean of the replicates in which the pair was seen; lower is stronger. Where no diploid with the target was found in any replicate, the entry reads "no signal": below detection, most likely a poor binder, though not proof of it.

Variant EFTLNSYGIS | VIYSDGRRTFYSDSVK | GEAGGTFDS gave no signal (0 of 6 replicates; controls 0 of 18). With GFTLDSYPIS | VIYSDGRRTFYGDSVK | GRAAGTALD the result was no signal (0 of 6 replicates; controls 0 of 18). For GFELNDYGIS | VIYSDGRRTYYIDSVK | GRAAGTFDS, the assay gave 340 nM (5 of 6 replicates; controls 0 of 18). Variant GYTLTSYGIS | VIYSDGRRTFYGDSVK | GIAAGTFSS gave 680 pM (6 of 6 replicates; controls 0 of 18). Variant GFSLNEYGIS | VIYSDGRRTFYGDQVK | GQAAGTFDS showed 2.6 nM (6 of 6 replicates; controls 1 of 18). With GFTLNSYGIS | VIYADGRRTFYGDSVK | GNAAGTFDT the result was 160 pM (6 of 6 replicates; controls 0 of 18).

Variant GFTLNEYGIS | VIYSDGRRTFYADSVK | GRAGGTFDS gave 2.8 nM (6 of 6 replicates; controls 0 of 18). Variant GFELNDYGIS | VIYSDGRRTFYMDSVK | GRTAGTFDS gave 2.8 nM (6 of 6 replicates; controls 0 of 18). Variant GFTLNSYGIS | VIYSDGRRTFYGDSVK | GRAAGRDDS showed no signal (0 of 6 replicates; controls 0 of 18). For HFDLNSYGIS | VIYSDGRRTFYHDSVK | GRTAGTFDS, the assay gave 1.8 nM (6 of 6 replicates; controls 1 of 18). Variant GFELNSYGIS | VIYSDGRRTFYGDSVK | GRIAGTFDT showed 2.5 nM (6 of 6 replicates; controls 1 of 18). For GFTLDSYGIS | VIYADGRRTFYGDSVK | GRAAGTFHS, the assay gave 52 nM (5 of 6 replicates; controls 0 of 18).

Variant GFSLNSYGIS | VIYSDGRRTFYHDSVK | GNAAGTFDS gave 1.7 nM (6 of 6 replicates; controls 0 of 18). With GFTLNSYGIS | VIYSDGRRTFYIDSVK | GEASVTFDS the result was no signal (0 of 6 replicates; controls 1 of 18). Variant GFTLNSYGIS | VIYSDGRRTFYSDDVK | GQLAGTFDS gave no signal (0 of 6 replicates; controls 0 of 18). With GFRLNSYGIS | VIYSDGRRTFYDDSVK | GQVAGTFDS the result was 9.7 nM (6 of 6 replicates; controls 1 of 18). With GFELNSYGIS | VIYSDGMRTFYKDSVK | GRTAGTFDS the result was 3.3 nM (5 of 6 replicates; controls 1 of 18). With GFTLNEYGIS | VIYSDGRRTFYADSVK | GRIAGTFDS the result was no signal (0 of 6 replicates; controls 0 of 18).

Variant GFTLESYGIS | VIYSDGRRTFYGQAVK | GRWAGTFDS gave no signal (0 of 6 replicates; controls 0 of 18). With GFSLNEYGIS | VIYSDGRRTWYGDSVK | GRSAGTFDS the result was 3.1 nM (6 of 6 replicates; controls 1 of 18). For GFWLNDYGIS | VIYADGRRTFYGDSVK | GEAAGTFDS, the assay gave 1.4 nM (6 of 6 replicates; controls 2 of 18). Variant GFGLNEYGIS | VIYSDGRRTYYGDSVK | GRTAGTFDS gave 5.9 nM (6 of 6 replicates; controls 0 of 18). For GFNLNSYGIS | VIYSDGRRTFYGDAVK | GQEAGTFDS, the assay gave 1.6 nM (6 of 6 replicates; controls 1 of 18). Variant GFTLNEYGIS | VIYSDGRRTFYSDSVK | GRGAGTFDS showed 15 nM (6 of 6 replicates; controls 0 of 18).

Variant GFTLNEYGIS | VIYRDGRRTFYGDQVK | GRAAGTFDS gave no signal (0 of 6 replicates; controls 0 of 18). With GFTLNEYGIS | VIYSDGRRTFYTDSVK | GFAAGTFDL the result was 1.9 nM (6 of 6 replicates; controls 1 of 18). With GFTLNDYGIS | VIYSDGRRQFYGDSVK | GEAAGTFDS the result was 180 nM (5 of 6 replicates; controls 1 of 18). With GFSLNDYGIS | VIYSDGRRTHYIDSVK | GRAAGTFDS the result was 250 nM (3 of 6 replicates; controls 1 of 18). Variant GFTLNSYGIS | VIYSDGRRTFYDDSVK | GQEAGTFDD showed no signal (0 of 6 replicates; controls 0 of 18). Variant GFDLNSYGIS | VIYSDGRRTFYADSVK | GQLAGTFDS gave 850 pM (6 of 6 replicates; controls 0 of 18).

With GFWLNEYGIS | VIYSDGRRTFYYDSVK | GRQAGTFDS the result was no signal (0 of 6 replicates; controls 0 of 18). Variant GFTLNSYGIS | VIYSDGQRTFYGDSVK | GQTAGTFDK showed no signal (0 of 6 replicates; controls 0 of 18). Variant GFDLNMYGIS | VIYSDGRRTFYHDSVK | GRTAGTFDS gave no signal (0 of 6 replicates; controls 0 of 18). With GFSLNDYGIS | VIYSDGRRTFYDDRVK | GRTAGTFDS the result was 1.2 nM (6 of 6 replicates; controls 0 of 18). Variant GFELNSYGIS | VIYSDGRRTFYGDSVK | GRAAGHFNS showed no signal (0 of 6 replicates; controls 0 of 18). Variant GFSLNQYGIS | VIYSDGRRTFYIDSVK | GRAAGTFDS gave 3.7 nM (6 of 6 replicates; controls 0 of 18).

For GFNLNEYGIS | VIYSDGRRTMYGDSVK | GRTAGTFDS, the assay gave 750 pM (6 of 6 replicates; controls 1 of 18). With GENLNSYGIS | VIYSDGRRTFYGDSVK | GREAGTFDS the result was 30 nM (5 of 6 replicates; controls 0 of 18). Variant GFNLNSYGIS | VIYSDGRRTFYGDSVK | GNEAGTFDS gave 1.7 nM (6 of 6 replicates; controls 1 of 18). With GFTLNSYGIS | VIYSDGRRTFYSDSVK | GKAAGTFDV the result was 3.3 nM (6 of 6 replicates; controls 0 of 18). Variant GFTLNSYGIS | VIYSDGRRTFYQDSVK | GRAAGTFDS showed 38 nM (4 of 6 replicates; controls 0 of 18). Variant GFDLNSYGIS | VIYSDGRRTFYIDKVK | GQAAGTFDS gave 34 nM (6 of 6 replicates; controls 0 of 18).

For GFTLNSYGIS | VIYSDGERTFYGRSVK | NRAAGTFDQ, the assay gave no signal (0 of 6 replicates; controls 0 of 18). With GFSLNSYGIS | VIYSDGKRTFYGDSVK | GRNAGTFDS the result was 3.1 nM (6 of 6 replicates; controls 0 of 18). Variant YKSLNSYGIS | VIYSDGRRTAYGDSVK | GRTAGTFDS gave 1.2 µM (3 of 6 replicates; controls 0 of 18). With GFSLNSYGIS | VIYSDGRRTFYGDSVK | RRAAGTFDS the result was no signal (0 of 6 replicates; controls 0 of 18).

6 of these entries, quoted again:

CDR-H1,CDR-H2,CDR-H3,apparent Kd,seen in,signal with controls
GFNLNSYGIS,VIYSDGRRTFYGDSVK,GNEAGTFDS,1.7 nM,6 of 6,1 of 18
GFSLNDYGIS,VIYSDGRRTHYIDSVK,GRAAGTFDS,250 nM,3 of 6,1 of 18
GFSLNSYGIS,VIYSDGKRTFYGDSVK,GRNAGTFDS,3.1 nM,6 of 6,0 of 18
EFTLNSYGIS,VIYSDGRRTFYSDSVK,GEAGGTFDS,no signal,0 of 6,0 of 18
GFDLNMYGIS,VIYSDGRRTFYHDSVK,GRTAGTFDS,no signal,0 of 6,0 of 18
GFTLNSYGIS,VIYSDGRRTFYDDSVK,GQEAGTFDD,no signal,0 of 6,0 of 18

The range of this assay differs from that of the first round, and the authors advise against merging the two. The parent sequence was in this pool as ten entries: three were never detected, three once, and four in most replicates, with averages from 2.2 nM to 240 nM. In the paper, a design with two or fewer of six values counts as a poor binder. Empty control strains, which show no peptide, gave a signal in 1% of pairings with all heavy chain designs; the median was 120 nM and 95% of these signals were weaker than 7.0 nM. No background was subtracted. For each scFv, signals with the empty controls are counted beside the result.

Data: MIT Lincoln Laboratory AlphaSeq set, Li et al. 2023, doi:10.1038/s41467-023-39022-2, as distributed in FLAb.